In the antibiotic and cytotoxicity screens of Wong et al. (2023):
What follows is the remainder of the data, with few or none of the hits.

Experiments:
HSkMC = human skeletal muscle cells; assay: cytotoxicity call (relative viability < 0.9); conditions: 10 µM
HepG2 = assay: cytotoxicity call (relative viability < 0.9); conditions: 10 µM
S. aureus RN4220 = assay: growth inhibition call (relative growth <= 0.2); conditions: 50 µM

CC[C@H](C)[C@H](NC(=O)[C@H](CCC(=O)O)NC(=O)[C@H](CCC(=O)O)NC(=O)[C@H](Cc1ccccc1)NC(=O)[C@H](CC(=O)O)NC(=O)CNC(=O)[C@H](CC(N)=O)NC(=O)CNC(=O)CNC(=O)CNC(=O)CNC(=O)[C@@H]1CCCN1C(=O)[C@H](CCCNC(=N)N)NC(=O)[C@@H]1CCCN1C(=O)[C@H](N)Cc1ccccc1)C(=O)N1CCC[C@H]1C(=O)N[C@@H](CCC(=O)O)C(=O)N[C@@H](CCC(=O)O)C(=O)N[C@@H](Cc1ccc(O)cc1)C(=O)N[C@@H](CC(C)C)C(=O)O
inactive: cytotoxicity call (HSkMC) | cytotoxicity call (HepG2) | growth inhibition call (S. aureus RN4220)
